Earlier results on 1 molecule are cited in PMC9104152, “Phosphoproteomics Unravel HBV Triggered Rewiring of Host Phosphosignaling Events” (International Journal of Molecular Sciences, 2022).

Usually pKi stands for −log10 of the Ki, conventionally taken in molar units.

pKi: −log10 of the molar value.

In this data set the target is CK2. Particulars: target CK2; reported value, no reference given; cited from earlier work.

For `CN(C)c1nc2c(Br)c(Br)c(Br)c(Br)c2[nH]1` [DMAT], the pKi was 7.40.
